Test results: patent publication US9074188B2, “Cardiomyocyte- and/or cardiac progenitor cell-proliferating agent and method for proliferating cardiomyocytes and/or cardiac progenitor cells” (KYOTO UNIVERSITY, priority 2010, dated 2015)

What was measured:
[1] = system: cardiomyocytes derived from the human iPS cell line 253G1; assay: Number of troponin T type 2 (cTnT)-positive cells, cardiomyocytes derived from human iPS cells; assay type: cell-based; conditions: agent added for 4 days; FIG. 5a
[2] = system: cardiomyocytes derived from the human iPS cell line 253G1; assay: Positive rate of EdU by immunostaining, cardiomyocytes derived from human iPS cells; conditions: agent added for 4 days, FIG. 5b

Compound	number of troponin T type 2 (cTnT)-positive cells compared to the control [1]	positive rate of EdU [2]
O=C1Nc2cc(Br)ccc2/C1=C1/Nc2ccccc2/C1=N\O [BIO, 6-bromoindirubin 3′-oxime]	relatively larger	–
CC(C)c1cc(/C=C(\C#N)C(=O)NCCCc2ccccc2)cc(C(C)C)c1O [SU1498, (E)-3-(3,5-diisopropyl-4-hydroxyphenyl)-2-[(3-phenyl-n-propyl)aminocarbonyl]acrylonitrile]	relatively larger	14.3±0.4%
